Assay results taken from patent US8658639B2, “N-substituted-cyclic amino derivative” (Dainippon Sumitomo Pharma Co., Ltd, priority 2009, dated 2014).

The chains behind the UniProt entries cited, without tags or fusion partners. Residues count along the entry.
UniProt P00797, 67-406 limits assumed: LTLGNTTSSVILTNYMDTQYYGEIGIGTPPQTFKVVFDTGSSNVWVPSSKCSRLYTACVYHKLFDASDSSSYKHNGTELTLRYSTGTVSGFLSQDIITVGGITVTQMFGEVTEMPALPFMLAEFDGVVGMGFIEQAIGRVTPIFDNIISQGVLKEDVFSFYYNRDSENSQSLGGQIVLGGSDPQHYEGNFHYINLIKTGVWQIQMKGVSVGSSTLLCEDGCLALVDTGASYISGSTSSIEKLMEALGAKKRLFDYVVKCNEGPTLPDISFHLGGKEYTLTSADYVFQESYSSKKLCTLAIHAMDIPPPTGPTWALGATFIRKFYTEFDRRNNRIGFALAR

Target: Recombinant human renin (Homo sapiens, UniProt P00797)
Experiment: In vitro renin inhibitory activity assay
Conditions: read-out: Human renin inhibitory activity IC50; recombinant human renin 4.2 ng/mL, substrate 4 μM, 37° C., one hour, pH 7.4
Method: Experiment 1: In Vitro Renin Inhibitory Activity Assay
Recombinant human renin (4.2 ng/mL) was reacted in 0.1M HEPES buffer (pH 7.4) containing 0.1M NaCl, 1 mM EDTA and 0.1 mg/mL BSA together with a substrate and a test compound at 37° C. for one hour. As the substrate, Arg-Glu(EDANS)-Ile-His-Pro-Phe-His-Leu-Val-Ile-His-Thr-Lys(DABCYL)-Arg (SEQ ID NO: 1) or DABCYL-γ-Abu-Ile-His-Pro-Phe-His-Leu-Val-Ile-His-Thr-EDANS (SEQ ID NO: 2) was added in such an amount so that the final concentration thereof became 4 μM. The elevated fluorescence intensity at the exciting wavelength 340 nm and the fluorescence wavelength 500 nm was measured by a fluorescence plate reader. The concentration of a test compound to be needed to inhibit an enzyme activity in the presence of a test compound in several concentrations by 50% was calculated as an IC50 value. The test compounds were diluted in DMSO and used in this Experiment.

Structure (SMILES): CCC(=O)NCCN1C(=O)C2(CCC2)Oc2cc(C)c(C(=O)N(C(C)C)[C@@H]3CCCN(C(=O)OC(C)OC(=O)OC)C3)cc21 (stereo partly shown)
- IC50: 58 nM
